# Patent publication EP4624466A1, “DEGRADER FOR DECOMPOSING CMET PROTEIN, AND PHARMACEUTICAL COMPOSITION COMPRISING SAME” (Innocure Therapeutics, Inc., priority 2022, dated 2024)
# Amino acid sequences for entries named in this document (tags omitted). Residues count along the entry.
# UniProt P08581, 25-1390 limits assumed: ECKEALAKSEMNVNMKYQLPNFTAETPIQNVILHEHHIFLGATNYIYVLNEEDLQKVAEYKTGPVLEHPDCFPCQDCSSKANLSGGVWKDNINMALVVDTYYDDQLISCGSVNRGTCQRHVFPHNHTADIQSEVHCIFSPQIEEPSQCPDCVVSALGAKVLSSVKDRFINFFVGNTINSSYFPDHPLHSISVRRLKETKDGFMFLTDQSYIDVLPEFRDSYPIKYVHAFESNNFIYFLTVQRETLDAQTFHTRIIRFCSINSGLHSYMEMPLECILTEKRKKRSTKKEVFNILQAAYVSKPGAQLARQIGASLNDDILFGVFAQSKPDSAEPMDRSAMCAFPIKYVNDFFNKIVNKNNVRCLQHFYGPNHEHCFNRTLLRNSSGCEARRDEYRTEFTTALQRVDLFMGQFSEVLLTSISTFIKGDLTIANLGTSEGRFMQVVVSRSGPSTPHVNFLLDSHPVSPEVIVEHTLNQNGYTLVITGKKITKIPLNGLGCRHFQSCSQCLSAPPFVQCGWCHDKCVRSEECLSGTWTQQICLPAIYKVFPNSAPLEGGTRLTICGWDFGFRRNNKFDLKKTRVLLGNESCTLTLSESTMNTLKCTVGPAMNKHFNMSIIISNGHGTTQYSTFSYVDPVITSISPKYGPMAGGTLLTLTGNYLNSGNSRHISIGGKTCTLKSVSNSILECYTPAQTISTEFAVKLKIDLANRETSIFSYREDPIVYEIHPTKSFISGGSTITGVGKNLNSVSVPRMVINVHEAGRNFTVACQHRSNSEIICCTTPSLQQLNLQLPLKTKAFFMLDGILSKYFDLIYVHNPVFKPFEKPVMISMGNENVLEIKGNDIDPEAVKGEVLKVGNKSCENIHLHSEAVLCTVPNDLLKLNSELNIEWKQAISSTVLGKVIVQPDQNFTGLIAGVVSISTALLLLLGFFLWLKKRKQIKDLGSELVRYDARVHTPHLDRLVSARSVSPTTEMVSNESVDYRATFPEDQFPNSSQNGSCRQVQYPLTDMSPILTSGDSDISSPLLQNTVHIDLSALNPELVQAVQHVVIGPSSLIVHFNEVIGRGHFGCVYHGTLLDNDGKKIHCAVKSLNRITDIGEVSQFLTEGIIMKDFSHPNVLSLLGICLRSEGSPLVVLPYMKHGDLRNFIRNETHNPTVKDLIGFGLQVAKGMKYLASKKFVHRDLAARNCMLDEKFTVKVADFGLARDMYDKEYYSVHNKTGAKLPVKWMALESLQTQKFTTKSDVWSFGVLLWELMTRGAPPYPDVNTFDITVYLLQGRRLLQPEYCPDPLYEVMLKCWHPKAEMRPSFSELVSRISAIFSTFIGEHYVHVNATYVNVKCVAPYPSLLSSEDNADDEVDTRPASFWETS
# Legend:
# c-MET = c-MET (Homo sapiens, UniProt P08581); experiment: c-MET protein degradation (Simple Western), SNU-638; conditions: read-out: SNU-638 DC50; c-MET overexpressing gastric cancer cell line SNU-638, treated 24 hours; Table 2
# Method: In order to assess the resolution of the compound of the present invention for c-MET expressed in cells, cells were dispensed in a 12-well plate at a concentration of 2 × 10^5 cells/well, and then gastric cancer cell lines were treated with samples for 24 hours and lung cancer cell lines were treated for 48 hours. Cell lysates were collected using a scraper on ice, centrifuged at 4°C15,000 rpm for 30 min to obtain a protein-containing supernatant. Protein expression was then measured using the Simple Western Automated Western Blot System Abby instrument using 3 µg of protein for each sample. SDS and heat-induced denaturation proteins were separated by molecular weight, attached to capillary, reacted with anti-c-MET or anti-GAPDH antibodies, which are primary antibodies, and then reacted with HRP-conjugated secondary antibodies, and analyzed the protein expression signal with compass software. Protein expression was normalized based on the expression value of GAPDH, and protein development in each sample was measured as a percentage (%) based on 100% of samples treated with 0.1% DMSO carriers, and DC50 (concentration of a compound where 50% protein inhibition is achieved) was calculated from the change in protein expression amount due to compound treatment.
# SNU-638 = experiment: Cell viability / antiproliferative assay (WST-8), SNU-638; conditions: read-out: SNU-638 IC50, SNU-638 cells, 72 hours, Table 2
smiles,measurement,setting,value
N#Cc1cccc(-c2ccc(=O)n(Cc3cccc(-c4ncc(OCC5CCN(CCCCCc6cccc7cnn(C8CCC(=O)NC8=O)c(=O)c67)CC5)cn4)c3)n2)c1 (centres unmarked),DC50,c-MET,< 100 nM
same,IC50,SNU-638,< 100 nM
